These are literature values, as cited in US5322772A (Children's Research Institute, priority 1991, dated 1994).

This series addresses FKBP. The note with it: FKBP isolated from yeast, calf thymus and human T cells (JURKAT); cited from earlier work.

The term Kd denotes the equilibrium constant for the complex coming apart. Regarding `CO[C@H]1C[C@@H]2CC[C@@H](C)[C@@](O)(O2)C(=O)C(=O)N2CCCC[C@H]2C(=O)O[C@H]([C@H](C)C[C@@H]2CC[C@@H](O)[C@H](OC)C2)CC(=O)[C@H](C)/C=C(\C)[C@@H](O)[C@@H](OC)C(=O)[C@H](C)C[C@H](C)/C=C/C=C/C=C/1C` [RAP, Rapamycin], the dissociation constant (Kd) was about 200 pM.
